Experiments:
[1] = biological target: T1, kappa opioid receptor (Cavia porcellus, UniProt P41144); assay: GPI assay, antagonism of ethylketazocine (EK, kappa); assay type: cell-based, guinea pig; details: antagonist 100 nM, 15 min; agonist ethylketazocine (kappa)
T1 construct: a strip of longitudinal muscle with the myenteric plexus attached was prepared; from tissue; host or cells: guinea pig ileum, longitudinal muscle strip with myenteric plexus
Procedure: (§1) 1. Guinea Pig Ileal Longitudinal Muscle (GPI). Ilea from guinea pigs were taken approximately 10 cm from the ileocecal junction, and a strip of longitudinal muscle with the myenteric plexus attached was prepared by the method of H. B. Rang et al., Brit. J. Pharmacol., 22, 356 (1964). A 1 cm portion of this strip was then mounted between two platinum electrodes placed in a 10 ml organ bath and connected to an isometric transducer; contractions were recorded on a polygraph. Contractions of the ileal strip were initiated by supramaximal rectangular pulses in all preparations (80 V of 0.5 ms duration at a frequency of 0.1 Hz). Krebs bicarbonate solution containing 1.25 μM chlorpheniramine maleate was the bathing solution and was continuously bubbled with 95% O2 and 5% CO2. The organ bath was maintained at 36°-37° C. The longitudinal muscle strip was allowed to equilibrate with continuous stimulation for a minimum of 90 min. Cumulative concentration-response curves were determined after drugs were added to the bath in 10- to 50-μl amounts and washed out with two 10 ml portions of buffer after noting their maximum effects.
(§2) Concentration-response curves were obtained in the absence (control) and the presence of the antagonist are expressed as IC50 values. The IC50 ratio represents the IC50 in the presence of the antagonist divided by the control IC50 value in the same tissue. Therefore, a high IC50 ratio represents a correspondingly high degree of antagonism at a particular receptor. This IC50 ratio was employed to calculate the Ke value using the equation Ke=[antagonist]/(IC50 ratio-1). Therefore, a low Ke represents a correspondingly high degree of binding at a particular receptor.

Sequences of proteins named here, by UniProt entry; tags and fusion partners are left off. A change or cut given only in a name is not applied to a line headed by its entry. Residues count along the entry.
UniProt P41144: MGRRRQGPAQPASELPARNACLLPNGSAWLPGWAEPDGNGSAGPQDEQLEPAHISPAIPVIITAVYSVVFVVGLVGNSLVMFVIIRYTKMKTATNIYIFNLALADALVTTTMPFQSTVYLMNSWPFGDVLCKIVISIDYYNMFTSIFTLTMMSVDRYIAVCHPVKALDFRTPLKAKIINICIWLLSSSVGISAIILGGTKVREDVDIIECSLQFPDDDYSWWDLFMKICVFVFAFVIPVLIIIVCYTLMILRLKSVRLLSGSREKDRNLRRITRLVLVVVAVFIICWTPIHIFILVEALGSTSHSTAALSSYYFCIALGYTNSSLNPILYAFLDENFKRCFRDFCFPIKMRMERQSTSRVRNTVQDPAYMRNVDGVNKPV
UniProt P32300, whole entry: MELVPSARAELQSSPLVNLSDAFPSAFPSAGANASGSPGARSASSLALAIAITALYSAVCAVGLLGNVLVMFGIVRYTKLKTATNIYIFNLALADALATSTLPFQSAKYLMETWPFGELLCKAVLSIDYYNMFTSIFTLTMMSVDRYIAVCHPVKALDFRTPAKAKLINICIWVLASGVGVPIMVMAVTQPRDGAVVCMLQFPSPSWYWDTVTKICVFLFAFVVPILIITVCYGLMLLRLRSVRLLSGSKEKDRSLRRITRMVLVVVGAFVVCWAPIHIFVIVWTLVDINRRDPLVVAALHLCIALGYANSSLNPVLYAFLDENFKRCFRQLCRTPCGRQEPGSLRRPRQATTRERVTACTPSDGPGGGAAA
UniProt A0ACM8Q262, 1-400: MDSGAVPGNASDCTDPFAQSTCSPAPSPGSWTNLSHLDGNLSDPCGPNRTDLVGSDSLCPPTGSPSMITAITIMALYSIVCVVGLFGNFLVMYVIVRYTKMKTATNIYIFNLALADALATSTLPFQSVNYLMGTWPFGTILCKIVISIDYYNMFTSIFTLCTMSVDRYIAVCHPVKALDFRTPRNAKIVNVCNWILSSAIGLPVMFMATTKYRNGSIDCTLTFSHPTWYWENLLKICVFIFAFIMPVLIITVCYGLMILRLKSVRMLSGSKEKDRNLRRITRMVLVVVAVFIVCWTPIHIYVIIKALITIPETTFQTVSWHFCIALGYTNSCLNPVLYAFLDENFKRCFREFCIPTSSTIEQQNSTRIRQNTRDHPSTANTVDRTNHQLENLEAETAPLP

[2] = biological target: T2, delta opioid receptor (Mus musculus, UniProt P32300); assay: MVD assay, antagonism of DADLE (delta); assay type: cell-based; details: for MVD Antagonism IC50 Ratio (DADLE) / Kb: antagonist 100 nM, 15 min; for MVD Antagonism IC50 Ratio (DADLE): agonist DADLE (delta); for Kb: Ke=[antagonist]/(IC50 ratio-1)
T2 construct: Both vasa deferentia were dissected out of mice; from tissue; host or cells: mouse vas deferens
Procedure: 2. Mouse Vas (MVD). This assay was performed according to the description by G. Henderson et al., Brit. J. Pharmacol., 46, 764 (1972). Both vasa deferentia were dissected out of mice and mounted singly through two platinum ring electrodes in a 10 ml organ bath. The bath contained Krebs bicarbonate solution that was continuously bubbled with 95% O2 and 5% CO2. The organ bath was maintained at 37° C. The tissue was attached to an isometric transducer and stimulated transmurally with rectangular pulses ([…], 1 ms duration, supramaximal voltage). Drugs were added cumulatively to the bath in 10- to 50-μl amounts and washed out after noting their maximum effect.
as §2

[3] = biological target: T3, mu opioid receptor (Cavia porcellus, UniProt A0ACM8Q262); assay: GPI assay, antagonism of morphine (mu); assay type: cell-based, guinea pig; details: antagonist 100 nM, 15 min; agonist morphine (mu)
T3 construct: antagonism of morphine
Procedure: as §1, §2

7-(4',5'-Benz-2'-spiroindano)naltrexone and 7-(6',7'-Benz-2'-spiroindano)naltrexone [Compound 3e]
GPI Antagonism IC50 Ratio (EK) [1]: 2.01 | MVD Antagonism IC50 Ratio (DADLE) [2]: 25 | Kb [2]: 4.17 nM | GPI Antagonism IC50 Ratio (Morphine) [3]: 0.53

7-(5'-Methoxy-2'-spiroindano)naltrexone and 7-(6'-Methoxy-2'-spiroindano)naltrexone [Compound 3c]
GPI Antagonism IC50 Ratio (EK) [1]: 2.41 | MVD Antagonism IC50 Ratio (DADLE) [2]: 14 | Kb [2]: 7.81 nM | GPI Antagonism IC50 Ratio (Morphine) [3]: 0.92

7-(4,-Methoxy-2,-spiroindano)naltrexone and 7-(7' -Methoxy-2'-spiroindano)-naltrexone [Compound 3b]
GPI Antagonism IC50 Ratio (EK) [1]: 2.63 | MVD Antagonism IC50 Ratio (DADLE) [2]: 60 | Kb [2]: 1.71 nM | δ-antagonist activity (in words) ([2]; δ-selective agonist): moderate δ-antagonist activity | GPI Antagonism IC50 Ratio (Morphine) [3]: 8.47

Source: patent US5298622A, “Spiroindane opiate analogs” (priority 1993, dated 1994)
